{"source": "PubChem BioAssay AID2716", "about": "(Broad Institute, 2010)", "note": "The list shows a part of the results, in another mix than the full data. The source made the active and inactive calls.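 Rule for the calls: active = every valid replicate shows activation above 250% relative to neutral control wells; inactive = the rest, any valid replicate at or below 250%.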", "data": [{"assay": "restored growth of temperature-sensitive Mot1-301 yeast – S. cerevisiae, ATP luminescence, 38.5C, SUMOylation pathway inhibitor project, primary screen (AID 2716);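 note: OY570 slx delta 5 strain wells were the positive control but not used for scaling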", "settings": "S. cerevisiae Mot1-301 growth rescue, at 18.8 µM, stronger effect = higher value, percent above DMSO median, 100 means doubled", "values": [{"smiles": "CCOc1ccc(C)cc1CN(CCCl)CCCl", "growth rescue": "inactive: -11.6%"}, {"smiles": "O=C(NCC1(N2CCCCC2)CCCCC1)c1ccc(F)cc1", "growth rescue": "inactive: 9.04%"}, {"smiles": "CCOC(=O)N1CCC(Nc2ccc(F)cc2)CC1", "growth rescue": "inactive: 37.6%"}, {"smiles": "COc1ccc(NC2CCN(CCc3ccccc3)CC2)c(OC)c1", "growth rescue": "inactive: 15.2%"}, {"smiles": "COc1cc(C(=O)NCC2(N(C)C)CCCCC2)ccc1OC(F)F", "growth rescue": "inactive: 17.2%"}, {"smiles": "CCOC(=O)N1CCC(Nc2cccc(C)c2)CC1", "growth rescue": "inactive: -9.48%"}, {"smiles": "Cc1ccc(OCC(C)C)c(CN(CCCl)CCCl)c1", "growth rescue": "inactive: 2.5%"}, {"smiles": "O=C(NCC1(N2CCCCC2)CCCCC1)c1ccc(=O)[nH]c1", "growth rescue": "inactive: 2.64%"}, {"smiles": "O=C(NCC1(N2CCCCC2)CCCCC1)c1cccs1", "growth rescue": "inactive: -4.98%"}, {"smiles": "COc1ccc(C(=O)NCC2(N3CCCCC3)CCCCC2)cc1", "growth rescue": "inactive: -21.8%"}, {"smiles": "COc1ccc(C(=O)NCC2(N3CCCCC3)CCCCC2)c(OC)c1OC", "growth rescue": "inactive: 169%"}, {"smiles": "CC(C)(C)OC(=O)N1CCC(N(C(=O)c2ccccc2)c2ccc(F)cc2)CC1", "growth rescue": "inactive: 11.8%"}, {"smiles": "CSc1ccccc1C(=O)NCC1(N2CCCCC2)CCCCC1", "growth rescue": "inactive: -4.84%"}, {"smiles": "O=C(NCC1(N2CCOCC2)CCCCC1)c1cc2ccccc2o1", "growth rescue": "inactive: 3.3%"}, {"smiles": "O=C(NCC1(N2CCCCC2)CCCCC1)c1ccc(Cl)nc1", "growth rescue": "inactive: -13%"}, {"smiles": "Cc1cc(C)cc(N(C(=O)c2ccccc2)C2CCN(C(=O)OC(C)(C)C)CC2)c1", "growth rescue": "inactive: -1.12%"}, {"smiles": "CCOC(=O)N1CCC(Nc2ccc(OC)cc2)CC1", "growth rescue": "inactive: -11.8%"}, {"smiles": "O=C(OC1CN2CCC1CC2)C1c2ccccc2Oc2ccccc21", "note": "(stereo not given)", "growth rescue": "inactive: -21.9%"}, {"smiles": "N#CC1(Nc2ccccc2)CCN(Cc2ccccc2)CC1", "growth rescue": "inactive: 4.1%"}, {"smiles": "O=C(NCC1(N2CCCCC2)CCCCC1)c1ccc(Cl)s1", "growth rescue": "inactive: 0.135%"}, {"smiles": "COc1ccc(Cl)cc1C(=O)NCC1(N2CCOCC2)CCCCC1", "growth rescue": "inactive: 7.39%"}, {"smiles": "COc1ccc(CN(CCCl)CCCl)cc1Cl", "growth rescue": "inactive: 188%"}, {"smiles": "CN(C)c1cccc(C(=O)NCC2(N3CCCCC3)CCCCC2)c1", "growth rescue": "inactive: 15.9%"}, {"smiles": "CC(C)c1ccc(NC2CCN(C(=O)OC(C)(C)C)CC2)cc1", "growth rescue": "inactive: -15.1%"}, {"smiles": "COc1cc(OC)c(C(=O)NCC2(N(C)C)CCCCC2)cc1OC", "growth rescue": "inactive: -1.42%"}, {"smiles": "O=C(NCC1(N2CCOCC2)CCCCC1)c1cc(F)c(F)cc1Cl", "growth rescue": "inactive: -12.7%"}, {"smiles": "O=C(NCC1(N2CCCCC2)CCCCC1)c1cncc(Br)c1", "growth rescue": "inactive: -4.77%"}, {"smiles": "CN1CCC(Nc2cccc(F)c2)CC1", "growth rescue": "inactive: -4.76%"}, {"smiles": "CCCOc1ccc(C(=O)NCC2(N(C)C)CCCCC2)cc1OC", "growth rescue": "inactive: 3.96%"}, {"smiles": "O=C(NCC1(N2CCCCC2)CCCCC1)c1ccc(OC(F)F)cc1", "growth rescue": "inactive: 111%"}, {"smiles": "O=C(NCC1(N2CCCCC2)CCCCC1)c1cccc([N+](=O)[O-])c1", "growth rescue": "inactive: 8.33%"}, {"smiles": "CCN1CCC(Nc2ccc(Cl)cc2)CC1", "growth rescue": "inactive: -12.3%"}, {"smiles": "N#CC1(Nc2ccccc2)CCN(CCc2ccccc2)CC1", "growth rescue": "inactive: 23.2%"}, {"smiles": "O=C(NCC1(N2CCCCC2)CCCCC1)c1cccc(C(F)(F)F)c1", "growth rescue": "inactive: -20.8%"}, {"smiles": "CN1CCN(CCOC(=O)C(O)(c2ccccc2)c2ccccc2)CC1", "growth rescue": "inactive: -9.49%"}, {"smiles": "O=C(NCC1(N2CCOCC2)CCCCC1)c1cc(=O)[nH]c2ccccc12", "growth rescue": "inactive: -20.9%"}, {"smiles": "COc1cc(C(=O)NCC2(N3CCCCC3)CCCCC2)ccc1OC(F)F", "growth rescue": "inactive: -3.95%"}, {"smiles": "CC(C)(C)OC(=O)N1CCC(N(C(=O)c2ccccc2)c2ccc(Cl)cc2)CC1", "growth rescue": "inactive: -7.71%"}, {"smiles": "N#Cc1ccc(C(=O)NCC2(N3CCCCC3)CCCCC2)cc1", "growth rescue": "inactive: 2.69%"}, {"smiles": "c1ccc(CN2CCC(Nc3ccccc3)CC2)cc1", "growth rescue": "active: 560%"}, {"smiles": "CCCN1CCC(Nc2cc(OC)cc(OC)c2)CC1", "growth rescue": "inactive: 2650%"}, {"smiles": "CN(C)C1(CNC(=O)c2cccc(C#N)c2)CCCCC1", "growth rescue": "inactive: 9.15%"}, {"smiles": "O=C(NCC1(N2CCOCC2)CCCCC1)c1cc(Br)ccc1Cl", "growth rescue": "inactive: -8.22%"}, {"smiles": "COc1cc(C(=O)NCC2(N3CCOCC3)CCCCC2)cc(OC)c1C", "growth rescue": "inactive: -9.23%"}, {"smiles": "COc1ccc(C(=O)NCC2(N3CCOCC3)CCCCC2)cc1OC", "growth rescue": "inactive: -7.67%"}, {"smiles": "N/C(=N\\O)c1c(N)no[n+]1[O-]", "growth rescue": "inactive: -10.8%"}, {"smiles": "CCOC(=O)N1CCC(Nc2ccc(C)cc2)CC1", "growth rescue": "inactive: -18.8%"}, {"smiles": "O=C(OC1CN2CCC1CC2)C1c2ccccc2C=Cc2ccccc21", "note": "(stereo not given)", "growth rescue": "inactive: -6.63%"}, {"smiles": "CCc1cc(C(=O)NCC2(N3CCCCC3)CCCCC2)sc1C", "growth rescue": "inactive: 12.6%"}, {"smiles": "CCOc1ncccc1C(=O)NCC1(N2CCOCC2)CCCCC1", "growth rescue": "inactive: -3.07%"}, {"smiles": "CN1CCC(Nc2ccc(F)c(Cl)c2)CC1", "growth rescue": "inactive: -13.3%"}, {"smiles": "CCCOc1ccc(C(=O)NCC2(N(C)C)CCCCC2)cc1", "growth rescue": "inactive: -6.34%"}, {"smiles": "CC(C)(C)OC(=O)N1CCC(Nc2ccccc2)CC1", "growth rescue": "inactive: -7.14%"}, {"smiles": "O=C(O)C1(Nc2ccccc2)CCN(Cc2ccccc2)CC1", "growth rescue": "inactive: -11.8%"}, {"smiles": "CCC(CO)(C(=O)OC1CN2CCC1CC2)c1ccccc1", "note": "(stereo not given)", "growth rescue": "inactive: -2.85%"}, {"smiles": "COc1cccc(C(=O)N(c2cc(C)cc(C)c2)C2CCN(C(=O)OC(C)(C)C)CC2)c1", "growth rescue": "inactive: -4.07%"}, {"smiles": "COc1cc(OC)cc(C(=O)NCC2(N3CCOCC3)CCCCC2)c1", "growth rescue": "inactive: -24.7%"}, {"smiles": "CCCOc1ccc(C)cc1CN(CCCl)CCCl", "growth rescue": "inactive: 11.8%"}, {"smiles": "CN1CCC(Nc2ccc(Cl)cc2)CC1", "growth rescue": "inactive: 1930%"}, {"smiles": "COc1cc(OC)cc(C(=O)NCC2(N3CCCCC3)CCCCC2)c1", "growth rescue": "inactive: 12.7%"}, {"smiles": "Cc1ccc(C(=O)NCC2(N3CCCCC3)CCCCC2)o1", "growth rescue": "inactive: -7.86%"}, {"smiles": "Fc1ccccc1NC1CCN(Cc2ccccc2)CC1", "growth rescue": "inactive: -22.8%"}, {"smiles": "CCN1CCC(Nc2cccc(F)c2)CC1", "growth rescue": "inactive: -16%"}, {"smiles": "O=C(NCC1(N2CCCCC2)CCCCC1)c1ccco1", "growth rescue": "inactive: 32.3%"}, {"smiles": "CN(C)c1ccc(C(=O)NCC2(N3CCCCC3)CCCCC2)cc1", "growth rescue": "inactive: -7.35%"}]}]}
